Reference: ChEMBL document CHEMBL1759903, “Pentacycloundecane-based inhibitors of wild-type C-South African HIV-protease” (Bioorg Med Chem Lett, 2011)

Biological target: Protease (Human immunodeficiency virus 1, UniProt Q9YQ12)
Assay: Inhibition of HIV1 subtype C protease expressed in Escherichia coli BL21 assessed as hydrolysis of substrate using chromogenic substrate Lys-Ala-Arg-Val-Nle-p-nitro-Phe-Glu-Ala-Nle-NH2 by spectrophotometric analysis

Q: Which IC50 does the source give for Cc1cccc(C)c1OCC(=O)N[C@@H](Cc1ccccc1)[C@@H](O)C[C@H](Cc1ccccc1)NC(=O)[C@H](C(C)C)N1CCCNC1=O [LOPINAVIR] here?
A: 25 nM
